Bioassay records as filed in PubChem.
This is a sample that favours compounds with a hit; in the whole collection about 2.1% have one here.
SMARCA2 activ: SMARCA2 (BRM) function activators, primary screen, cell-based, luminescence, high throughput. hit rate 1% among 370,000. MG213 cells, MMTV-luciferase reporter, dexamethasone, overnight. activation, % at 9.1 µM; in the data active = activation above about 7.8%;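 note: 0% = vehicle wells and 100% = reference activator wells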
UUG fidelity: modulators of yeast start codon fidelity, primary screen, whole organism, S. cerevisiae, single point, plate reader. S. cerevisiae UUG-firefly luciferase reporter, luminescence/redox ratio. activity score, % at 18.7 µM. actives 0.13% (n = 350,000);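 active = replicate mean at a twofold rise or more, about +100% in these data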;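 note: firefly luciferase made from a UUG start codon reports start codon fidelity; reporter light over untreated wells divided by growth signal over untreated wells; some hits fall short of that in this replicate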
ERp5 block: inhibitors of ERp5-driven insulin aggregation, primary screen, biochemical, turbidity, absorbance 650 nm, single point | 90 min | inhibition, % at 9.99 µM | hit rate 0.05% among 350,000;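 active = mean replicate inhibition above about 25%, with every replicate also reaching it, limit read from the data, passing the limit was not always enough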
PDI turbidity: inhibitors of human PDI, primary screen, biochemical, turbidity, single point, plate reader; Protein disulfide-isomerase (Homo sapiens), P07237; PDI insulin aggregation turbidity, A650, 90 min; inhibition, % at 10 µM; hit rate 0.052% among 350,000; AID 588391, 2011;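 active = mean inhibition across replicates of 30% or more, whatever share of single replicates reach that level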
Rev-erbA mod: modulators of Rev-erb alpha DNA binding, primary screen, biochemical, FITC-DNA, fluorescence polarization, uHTS. Nuclear receptor subfamily 1 group D member 1 (Homo sapiens), P20393. Rev-erbα–FITC-DNA binding, 90 min. activity, % at 10 µM. hit rate 0.79% among 370,000. AID 1259318, 2017;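 active = activity above about 14%, limit read from the data; passing the limit was not always enough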;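 note: 0% = DMSO wells with 35 nM protein and 100% = DMSO wells with 750 nM protein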
GSIS activator: GLuc luminescence reporter in INS-1E cells, primary screen for activators of glucose-dependent secretion of insulin; hit rate 0.61% among 370,000; INS-1E GLuc reporter insulin secretion, 2-3 h; activation, % at 16.6 µM;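 active = lowest replicate activation of at least 40%, so every replicate reaches that level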;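 note: 0% = median of neutral control wells and 100% = median of IBMX positive control wells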
Numbers without * were called inactive; / = not tested or not shown; ! = not active in a repeat.

1) COc1ccc(S(=O)(=O)Nc2cccc3c2O[C@@H](CN(C)S(=O)(=O)c2cccs2)[C@H](C)CN([C@H](C)CO)C3=O)cc1
2) COc1ccc(CN(C)C[C@@H]2Oc3c(NC(=O)c4ccc(-c5nccs5)cc4)cccc3C(=O)N([C@H](C)CO)C[C@H]2C)cc1
3) Cc1ccc(S(=O)(=O)c2nc(S(C)(=O)=O)sc2N2CCCCCC2)cc1
4) Cc1ccc(S(=O)(=O)c2nc(S(C)(=O)=O)sc2N2CCC(C)CC2)cc1
5) CCOC1=C2[C@H](c3ccc(C)cc3)N(S(=O)(=O)c3ccc(C)cc3)C[C@H]2n2c(=O)n(-c3ccccc3)c(=O)n2C1
6) CCOC1=C2[C@H](c3cccc(Cl)c3)N(S(=O)(=O)c3ccc(C)cc3)C[C@H]2n2c(=O)n(-c3ccccc3)c(=O)n2C1
7) CCCOc1ccc(NC(=O)C2CC(=O)N/C(=N/N=C(C)/C=C/c3ccc(N(C)C)cc3)S2)cc1 (stereo not drawn)
8) CC(/C=C/c1ccc(N(C)C)cc1)=N/N=C1/NC(=O)CC(C(=O)Nc2ccc(Cl)cc2)S1 (stereo not drawn)
assay / compound | 1 | 2 | 3 | 4 | 5 | 6 | 7 | 8
SMARCA2 activ | / | / | -3 | 7.8* | -3 | -4 | 9.3* | 0
UUG fidelity | -4 | -6 | 20 | -12 | -21 | -11 | -12 | -16
ERp5 block | 11 | 0 | 1 | -1 | 3 | 9 | / | 4
PDI turbidity | / | / | 2 | 1 | / | / | -4 | -11
Rev-erbA mod | / | / | -1 | 6 | -4 | 2 | -4 | 1
GSIS activator | 8 | -28 | 25 | -5 | 52* | -17 | -2 | /

9) C=CCn1cnc2scc(-c3ccc(OC)cc3)c2c1=O
10) N#C/C(=C\c1cn(Cc2ccccc2F)c2ccccc12)C(=O)NCc1ccco1
11) COc1ccccc1OCCn1cc(/C=C(\C#N)C(=O)NCc2ccco2)c2ccccc21
12) N#C/C(=C\c1cn(CCOc2ccccc2)c2ccccc12)C(=O)NCc1cccs1
13) CN1CCc2c(sc(NC(=O)c3ccco3)c2C(N)=O)C1
14) Cc1c(Cc2ccccc2)sc(NC(=O)c2ccco2)c1C(N)=O
15) COC(=O)c1c(NC(=O)c2ccco2)sc(C)c1C
16) CC(C)N1CCc2c(sc(NC(=O)c3ccco3)c2C(N)=O)C1
assay / compound | 9 | 10 | 11 | 12 | 13 | 14 | 15 | 16
SMARCA2 activ | -4 | -1 | -4 | 0 | 8.0* | 5 | -3 | 1
UUG fidelity | -8 | / | -15 | -8 | -13 | -14 | -19 | -20
ERp5 block | 0 | / | / | / | 4 | / | / | -6
PDI turbidity | -7 | 3 | -1 | 1 | -4 | -5 | -1 | -11
Rev-erbA mod | -2 | -3 | 2 | 2 | -6 | 5 | 1 | 0
GSIS activator | 61* | 56* | -7 | 99* | 7 | 86* | / | 30

17) O=C(NCC1OCCc2ccccc21)c1ccc(NC(=O)c2ccc(Cl)cc2)cc1 (stereo not drawn)
18) O=C(COC(=O)c1cccc([N+](=O)[O-])c1)NCc1cccs1
19) Cc1ncsc1CCOC(=O)c1cccc([N+](=O)[O-])c1
20) O=[N+]([O-])c1ccc(N2CCCCC2)cc1N1CCOCC1
21) O=[N+]([O-])c1ccc(N2CCOCC2)cc1N1CCCCC1
22) CN(C)C(=O)c1ccc(-c2ccc([C@@H]3[C@@H](CO)N4C(=O)CN(C(=O)C5CCC5)C[C@@H]34)cc2)cc1
23) CCOC(=O)c1c(S(=O)(=O)Nc2ccc(C)cn2)c(C)n(C)c1C
24) CCOC(=O)c1c(S(=O)(=O)NCCc2ccc(OC)c(OC)c2)c(C)n(C)c1C
assay / compound | 17 | 18 | 19 | 20 | 21 | 22 | 23 | 24
SMARCA2 activ | -5 | 0 | 0 | 3 | -2 | / | 7.9* | 3
UUG fidelity | -6 | / | -2 | / | / | / | -8 | -6
ERp5 block | / | 3 | -1 | 1 | 3 | 2 | 4 | 1
PDI turbidity | 4 | 5 | -6 | 1 | 0 | / | 3 | 2
Rev-erbA mod | 0 | 1 | 0 | 12 | 9 | / | -7 | 1
GSIS activator | 249* | -3 | 42*! | 45* | 43 | -16 | 2 | 51*

The final three records of the part above come first, to join the parts:
22) CN(C)C(=O)c1ccc(-c2ccc([C@@H]3[C@@H](CO)N4C(=O)CN(C(=O)C5CCC5)C[C@@H]34)cc2)cc1
23) CCOC(=O)c1c(S(=O)(=O)Nc2ccc(C)cn2)c(C)n(C)c1C
24) CCOC(=O)c1c(S(=O)(=O)NCCc2ccc(OC)c(OC)c2)c(C)n(C)c1C
25) CCc1nnc(NC(=O)CSc2nnc3nc(C)cc(C)n23)s1
26) COC(=O)COc1ccc(C)cc1-n1nc2ccccc2n1
27) O=C(Nc1cccc(NC(=O)c2ccccc2Cl)c1)c1cccs1
28) Cc1ccc(NC(=O)c2cccs2)cc1NC(=O)c1ccccc1Cl
29) C=C[C@H]1CN2CC[C@@H]1C[C@@H]2[C@H](O)c1ccnc2ccc(OC)cc12
30) CC(C)NC(=O)N(C)C[C@H]1Oc2ccccc2CC(=O)N(C)C[C@H]1C
31) C[C@H](CO)N1C[C@H](C)[C@@H](CN(C)C(=O)c2cccnc2)Oc2ncc(-c3ccc(C#N)cc3)cc2C1=O
32) Cc1nc(NCc2ccc3c(c2)OCO3)c2nnn(Cc3ccccc3)c2n1
assay / compound | 22 | 23 | 24 | 25 | 26 | 27 | 28 | 29 | 30 | 31 | 32
SMARCA2 activ | / | 7.9* | 3 | 2 | -2 | -1 | 1 | / | / | / | -1
UUG fidelity | / | -8 | -6 | -22 | -17 | -23 | -11 | / | / | 2 | -15
ERp5 block | 2 | 4 | 1 | 1 | -6 | -4 | 1 | / | / | 0 | /
PDI turbidity | / | 3 | 2 | -8 | 5 | 5 | 6 | / | / | / | -10
Rev-erbA mod | / | -7 | 1 | 1 | -2 | -4 | -3 | 3 | / | / | -5
GSIS activator | -16 | 2 | 51* | 43* | 48* | -16 | 167* | / | -1 | 7 | 50*

33) c1ccc(Cn2nnc3c(NCc4ccc5c(c4)OCO5)nc(C4CC4)nc32)cc1
34) C[C@@H]1CN([C@@H](C)CO)S(=O)(=O)c2ccc(C#CC(C)(C)O)cc2O[C@@H]1CN(C)C(=O)C1CCCCC1
35) C=C1C(=O)[C@]23C[C@H]1CCC2[C@@]1(C)C(C[C@@H]3O)[C@](C)(C(=O)OC)CC[C@@H]1OC(C)=O (stereo partly drawn)
36) C=C1C(=O)[C@]23C[C@H]1CC[C@H]2[C@]1(C)[C@@H](OC(C)=O)CC[C@@](C)(C(=O)OC)[C@H]1C[C@@H]3OC(C)=O
37) Cc1nc2ncnn2c(C)c1CCC(=O)N1CCc2ccccc2C1
38) Cc1nc2ncnn2c(C)c1CCC(=O)N1CCN(c2ccccn2)CC1
39) COc1ccc(C(=O)c2cnc[nH]2)cc1OC
40) COc1cc2c(cc1OC)-c1cc(NCc3ccccn3)nc(=O)n1CC2
assay / compound | 33 | 34 | 35 | 36 | 37 | 38 | 39 | 40
SMARCA2 activ | -2 | / | -11 | -10 | 7.9* | 0 | -1 | 1
UUG fidelity | 3 | 6 | -3 | 18 | -18 | -17 | -20 | -13
ERp5 block | / | 0 | 3 | 4 | / | -9 | 3 | /
PDI turbidity | -9 | / | / | / | 9 | -7 | 4 | -1
Rev-erbA mod | 2 | / | -5 | 3 | -2 | -6 | 7 | -2
GSIS activator | / | -5 | 134* | 39 | / | / | 70* | 63*

41) COc1cc2c(cc1OC)-c1cc(Nc3ccccc3C)nc(=O)n1CC2
42) COc1cc2c(cc1OC)-c1cc(NC3CCCCCCC3)nc(=O)n1CC2
43) COc1cc2c(cc1OC)-c1cc(NC3CCCCC3)nc(=O)n1CC2
44) COc1cc2c(cc1OC)-c1cc(Nc3cccc(C)c3)nc(=O)n1CC2
assay / compound | 41 | 42 | 43 | 44
SMARCA2 activ | 6 | 4 | 2 | 2
UUG fidelity | 4 | -8 | 0 | 6
ERp5 block | 2 | / | / | -10
PDI turbidity | -7 | 3 | 29 | 0
Rev-erbA mod | 0 | -2 | 4 | -3
GSIS activator | 53* | / | 72* | 51
